AlphaSeq binding of Ab-95 light chain variants to a spike HR2 peptide

Data: MIT Lincoln Laboratory AlphaSeq set, Engelhart et al. 2022, doi:10.1038/s41597-022-01779-4, as distributed in FLAb.

Binding partner: SARS-CoV-2 spike HR2 peptide, sequence PDVDLGDISGINAS.

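The starting antibody came from a phage panning campaign against this peptide. Variants in AAYL52 differ from the parent at up to three CDR positions; double and triple changes were sampled at random. The assay is AlphaSeq: two haploid yeast populations carry antibody and antigen on their surface. The frequency of each diploid, read from paired DNA barcodes, reflects how well the two displayed proteins bind. Read counts were normalised to the haploid input and turned into Kd by a linear fit to BCL2-family pairs of known affinity, for each replicate. There are three technical replicates.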

Ab-95 is the parent antibody, in scFv form: VH, then a (GGGGS)3 linker, then VL. The heavy chain is unchanged in all variants.
VH: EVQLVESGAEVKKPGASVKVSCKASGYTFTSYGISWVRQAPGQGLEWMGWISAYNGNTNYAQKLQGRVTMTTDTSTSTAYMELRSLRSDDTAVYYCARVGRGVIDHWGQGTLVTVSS
VL: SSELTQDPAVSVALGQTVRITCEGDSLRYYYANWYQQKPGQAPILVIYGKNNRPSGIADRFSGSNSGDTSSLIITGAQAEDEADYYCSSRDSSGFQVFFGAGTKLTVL

Substitutions are numbered in sequence along the VL above, starting at 1 (not Kabat). Every variant below is changed at Y31 of the VL (sequential numbering). Each Kd is an estimate from the mating assay, the geometric mean of the replicates in which the pair was seen; lower is stronger. "nd" means that the variant was in the library but no mating with the target was seen in any replicate; the authors take this as a sign of poor binding, and no number exists. Order: sorted from the lowest average up, undetected variants last. Empty control strains, which show no peptide, gave a signal in 28% of pairings with library AAYL52; the median was 8.2 µM and 95% of these signals were weaker than 800 nM. No background was subtracted. For each scFv, signals with the empty controls are counted beside the result.

Y31A+G49N+S88M: 9.3 nM (3 of 3 replicates; controls 7 of 9).
Y31D+D91T+F95N: 15 nM (3 of 3 replicates; controls 4 of 9).
E23K+Y31M: 16 nM (3 of 3 replicates; controls 2 of 9).
Y29V+Y31D+S89C: 21 nM (3 of 3 replicates; controls 3 of 9).
D25Y+Y31T+N52Q: 21 nM (3 of 3 replicates; controls 0 of 9).
Y31A+Q96I+F98C: 23 nM (3 of 3 replicates; controls 2 of 9).
E23D+Y31P: 26 nM (3 of 3 replicates; controls 3 of 9).
Y31P+N52L+S92C: 35 nM (3 of 3 replicates; controls 1 of 9).
D25Y+Y31H+D91T: 41 nM (3 of 3 replicates; controls 2 of 9).
Y29P+Y31A+S55D: 44 nM (3 of 3 replicates; controls 3 of 9).
Y29T+Y31N+R53K: 51 nM (3 of 3 replicates; controls 6 of 9).
E23L+Y31G: 73 nM (3 of 3 replicates; controls 2 of 9).
Y29N+Y30P+Y31M: 75 nM (3 of 3 replicates; controls 1 of 9).
Y31P+N51G+S89T: 82 nM (3 of 3 replicates; controls 3 of 9).
R28H+Y31H+D91S: 87 nM (3 of 3 replicates; controls 3 of 9).
E23I+Y31G+N51C: 93 nM (3 of 3 replicates; controls 2 of 9).
R28A+Y29D+Y31C: 140 nM (3 of 3 replicates; controls 4 of 9).
Y31G+N33R+N52K: 140 nM (3 of 3 replicates; controls 6 of 9).
Y31L+S92D+S93Y: 220 nM (3 of 3 replicates; controls 1 of 9).
Y31K: 280 nM (3 of 3 replicates; controls 0 of 9).
Y31P+P54K+S88C: 300 nM (3 of 3 replicates; controls 2 of 9).
Y31M+N51A+F95T: 300 nM (3 of 3 replicates; controls 5 of 9).
L27D+Y31M+S88E: 430 nM (3 of 3 replicates; controls 3 of 9).
R28F+Y31A+N52H: 450 nM (3 of 3 replicates; controls 3 of 9).
Y31K+S89Y+Q96R: 670 nM (3 of 3 replicates; controls 6 of 9).
Y30D+Y31A+R53E: 980 nM (3 of 3 replicates; controls 3 of 9).
Y31D+D91C+F95V: 980 nM (3 of 3 replicates; controls 4 of 9).
D25Q+Y31Q+F95N: 1.0 µM (2 of 3 replicates; controls 0 of 9).
Y31T+A32K+K50A: 1.4 µM (3 of 3 replicates; controls 4 of 9).
Y31W+N52S+S88Q: 1.4 µM (1 of 3 replicates; controls 0 of 9).
Y31S+N33D+F98N: 1.4 µM (1 of 3 replicates; controls 2 of 9).
R28S+Y31V+V97C: 2.0 µM (3 of 3 replicates; controls 3 of 9).
L27E+Y31D+K50H: 2.3 µM (3 of 3 replicates; controls 2 of 9).
G24V+Y31F+D91G: 2.4 µM (3 of 3 replicates; controls 1 of 9).
Y31Q+N33R+N52W: 3.2 µM (3 of 3 replicates; controls 4 of 9).
Y29A+Y31V+Q96T: 3.3 µM (3 of 3 replicates; controls 3 of 9).
E23Y+Y31K+F98E: 4.0 µM (3 of 3 replicates; controls 3 of 9).
Y31P+A32W+N33L: 11 µM (2 of 3 replicates; controls 2 of 9).
Y31W+A32Q+P54H: 16 µM (2 of 3 replicates; controls 4 of 9).
G24F+Y31R: 31 µM (3 of 3 replicates; controls 2 of 9).
Y31V+R90D+G94T: 31 µM (2 of 3 replicates; controls 1 of 9).
Y31T+N51F+S93P: 37 µM (2 of 3 replicates; controls 3 of 9).
Y31Q+N33K+S88D: 67 µM (2 of 3 replicates; controls 5 of 9).
S26F+Y31M+A32R: nd (0 of 3 replicates; controls 3 of 9).
R28P+Y31S+R53C: nd (0 of 3 replicates; controls 2 of 9).
Y31E+A32Q+G94R: nd (0 of 3 replicates; controls 2 of 9).

Excerpt, the final 3 entries:

{"changes": "S26F+Y31M+A32R", "Kd (apparent)": "nd", "seen in": "0/3", "signal with controls": "3/9"}
{"changes": "R28P+Y31S+R53C", "Kd (apparent)": "nd", "seen in": "0/3", "signal with controls": "2/9"}
{"changes": "Y31E+A32Q+G94R", "Kd (apparent)": "nd", "seen in": "0/3", "signal with controls": "2/9"}